Aptamer displacement data for 1 compound are collected here from PubChem BioAssay AID504451 (NMMLSC, 2011).

Amino acid sequences for entries named in this document (tags omitted).
UniProt P25098, whole entry: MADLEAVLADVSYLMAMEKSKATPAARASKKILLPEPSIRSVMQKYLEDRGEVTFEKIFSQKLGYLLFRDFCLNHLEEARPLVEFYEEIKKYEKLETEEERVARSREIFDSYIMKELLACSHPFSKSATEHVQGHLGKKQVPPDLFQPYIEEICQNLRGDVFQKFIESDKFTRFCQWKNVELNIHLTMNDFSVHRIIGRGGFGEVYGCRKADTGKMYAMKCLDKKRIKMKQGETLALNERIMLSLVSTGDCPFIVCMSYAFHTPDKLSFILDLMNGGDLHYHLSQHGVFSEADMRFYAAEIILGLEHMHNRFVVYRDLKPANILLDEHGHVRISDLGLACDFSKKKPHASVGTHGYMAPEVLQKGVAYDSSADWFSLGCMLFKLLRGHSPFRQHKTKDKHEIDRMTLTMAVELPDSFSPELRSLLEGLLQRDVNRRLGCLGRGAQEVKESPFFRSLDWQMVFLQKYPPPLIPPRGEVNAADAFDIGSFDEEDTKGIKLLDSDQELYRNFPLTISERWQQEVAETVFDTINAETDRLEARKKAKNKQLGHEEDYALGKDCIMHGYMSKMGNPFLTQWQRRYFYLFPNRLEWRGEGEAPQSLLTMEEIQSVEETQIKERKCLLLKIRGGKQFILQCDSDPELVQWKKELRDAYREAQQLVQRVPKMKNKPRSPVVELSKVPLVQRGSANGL

Structures are written as SMILES. The entries are a selection whose mix differs from that of the whole data set. The source made the active and inactive calls.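 The calls were made as follows: active = aptamer displacement above 40%, near three times the noise of non-fluorescent compounds, on plates passing quality checks; inactive = the rest.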

The target of the test is Beta-adrenergic receptor kinase 1 (Homo sapiens) (UniProt P25098). Put plainly: GRK2 aptamer-displacing inhibitors, retest, confirmation, biochemical, cherry pick 1, bead flow cytometry (AID 504451).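 Also: negative values mostly reflect intrinsic compound fluorescence rather than true enhancement.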 The following applies: bead-bound GRK2, FAM-aptamer displacement, at 10 µM, active compounds read high. Background: In flow cytometry, cells or beads pass a laser one at a time.
For the compound `CC(C)(C)OC(=O)N1CCC(N(C(=O)c2ccccc2)c2ccc(Cl)cc2)CC1`, the aptamer displacement was inactive: 3.45%.
